Test results published in patent US20130053337A1, “GUANIDINYLATED AMINOGLYCOSIDE-LIPID CONJUGATES” (UNIVERSITY OF MANITOBA, priority 2010, published 2013).

Tested on: sheep red blood cell (erythrocytes)
Assay: Hemolytic assay (in vitro toxicity)
Conditions: percent hemolysis
Description: Antibacterial activity against Gram-positive and Gram-negative microorganisms was tested via broth macrodilution tests using CLSI methodology (Zhanel et al., 2008). Stock solutions of cationic lipids in water were brought to a concentration of 512 mg/L. Organisms were subcultured and isolated on blood agar, suspended in 3 mL of Mueller-Hinton broth at the turbidity of a […], and diluted to approximately 10^5 cfu/mL before introduction into tubes containing serially diluted lipopeptide antibiotic in Mueller-Hinton broth. Activity testing against S. pneumoniae used broth supplemented with laked horse blood to give 5% horse blood in experimental tubes. Turbidity of lipopeptide solution in broth required creation of control tubes lacking organisms serving as turbidity controls. All tubes were incubated overnight for 16-20 h at 37° C. […] All experiments were performed in duplicate. In-vitro toxicity was determined using a sheep red blood cell hemolytic assay as previously described (Dathe et al., 1996).
In vitro toxicity was determined using a sheep red blood cell (erythrocytes) hemolytic assay (Dathe et al., 1996). […] Erythrocytes were washed and resuspended in Tris buffered saline. […] The samples were centrifuged and the absorbance of the supernatants measured at 540 nm. […] The toxicity was assessed by percent hemolysis.

Gentamicin [reference compound]
hemolytic activity at 100 mg/L: <0.6%
